Reference: patent publication US12649735B2 (HAIHE BIOPHARMA CO., LTD., priority 2019, dated 2026)
pIC50: −log10 of the molar value.

How the values were obtained:
[1] = target: bromodomain protein BRD4 BD2 (Homo sapiens, UniProt O60885); assay: HTRF in vitro assay, inhibitory activity against BRD4 BD2; conditions: read-out: BRD4(BD2) IC50, BRD4(2) 30 nM in final system
[2] = target: bromodomain protein BRD4 BD1 (Homo sapiens, UniProt O60885); assay: HTRF in vitro assay, inhibitory activity against BRD4 BD1; conditions: read-out: BRD4(BD1) IC50, BRD4(1) 30 nM in final system

Compound | pIC50 [1] | pIC50 [2]
CC(c1ccccc1)c1cn(C)c(=O)c2[nH]c(C(=O)NCC(F)(F)F)cc12 (centres unmarked) | > 8.00 | 6.00 to 7.00
CCNC(=O)c1cc2c(C(c3ccccc3)c3ccc(O)cc3)cn(C)c(=O)c2[nH]1 (centres unmarked) | 7.00 to 8.00 | 6.00 to 7.00
Cc1nocc1-c1cc2c(=O)n(C)cc(C(C)c3ccccc3)c2o1 (centres unmarked) | > 8.00 | 6.00 to 7.00
CCNC(=O)c1cc2c(C(c3ccccc3)c3ccc(OC)cc3)cn(C)c(=O)c2[nH]1 (centres unmarked) | 7.00 to 8.00 | 6.00 to 7.00
